Molecules are shown by their SMILES. Only a part is listed here, and it is no random draw. Inconclusive results are not listed. A call without a number means that no potency is given here. Calls of active or inactive are those of the source. Calls follow the shape of the dose curve; as a rule, active = well fitted inhibition curve with a large enough effect; inconclusive = small, poorly fitted or top-dose-only effect, or effect the other way; inactive = flat fitted curve, though single readings scatter.

The values below come from PubChem BioAssay AID504444 (National Center for Advancing Translational Sciences (NCATS), 2011).

A short description of the assay: Nrf2 qHTS screen for inhibitors. Also: nearly all actives have a fitted effect of over 60% in size. Particulars: A549 ARE-Fluc reporter, luciferase luminescence, 18-24 h; series mostly up to 46 µM. In general terms: In qHTS, concentration-response curves come from the screen itself.
In the case of `O=P1(N(CCCl)CCCl)OCCCN1CCCl` (stereo not drawn), the Potency result was “inactive”.
As for `COc1ccc2nc(NP(=O)(c3ccccc3)c3ccccc3)sc2c1`, the Potency entry is “inactive”.
Next, `COc1cc(I)ccc1[As](=O)(O)O`: “inactive”.
As to `O=[N+]([O-])c1cc(Oc2ccc([N+](=O)[O-])cc2C(F)(F)F)cc([N+](=O)[O-])c1`, the Potency entry is “inactive”.
The result for `COc1ccc(N/C(=N/P(=O)(N2CCOCC2)N2CCOCC2)N2CCOCC2)cc1` reads “inactive”; that for `C[As](=O)(O)c1cccc(C(=O)O)c1`, “inactive”.
The result for `O=[As](O)(c1ccc(O)cc1)c1ccccc1O` reads “inactive”.
The result for `O=[N+]([O-])c1ccc(-c2cc([N+](=O)[O-])c(O)c([N+](=O)[O-])c2)cc1` reads “inactive”; that for `COc1cc(C(=O)NCC2(N3CCOCC3)CCCCC2)ccc1OCC(C)C`, “inactive”; that for `Cc1ccc(OP(=O)(Nc2ccc([N+](=O)[O-])cn2)Oc2ccc(C)cc2)cc1`, “inactive”.
Consider `ClCCSc1nnc(-c2cccnc2)o1`, for which the Potency entry is “inactive”.
For `COC(=O)C1(C)COP(=O)(N2CCCCCC2)OC1` (stereo not drawn), the Potency entry is “inactive”.
The result for `CC(C)NC(=O)NP(=O)(Oc1ccccc1)Oc1ccccc1` reads “inactive”; that for `O=C(OC1CN2CCC1CC2)c1cccc2[nH]cnc12` (stereo not drawn), “inactive”.
Next, `CCOC(=O)Nc1ccc([As](=O)(O)O)c(O)c1`: “inactive”; `CC1CCNP(=O)(N(CCCl)CCCl)O1` (stereo not drawn): “inactive”.
The result for `CCCCOc1ccc(C(=O)NCC2(N3CCCCC3)CCCCC2)cc1OC` reads “inactive”.
`Cc1cc(SC(NC(=O)c2ccccc2)C(Cl)(Cl)Cl)nc(C(C)C)n1` (stereo not drawn): the Potency result is “inactive”.
Next, `CCOC(=O)Nc1cccc([As](=O)(O)O)c1`: “inactive”; `Cc1cc(SC(NC=O)C(Cl)(Cl)Cl)ncn1` (stereo not drawn): “inactive”; `O=P(Nc1ccccn1)(c1cccc2ccccc12)c1cccc2ccccc12`: “inactive”.
The result for `O=[N+]([O-])c1ccc(Nc2ccc(Oc3ccc([N+](=O)[O-])cc3[N+](=O)[O-])cc2)c([N+](=O)[O-])c1` reads “inactive”; that for `COP1(=S)c2c(C)nn(CCC#N)c2N=C(c2ccc(F)cc2)N1C` (stereo not drawn), “inactive”; that for `O=C(COc1ccccc1)OC1CN2CCC1CC2` (stereo not drawn), “inactive”.
The result for `O=C(Nc1ccncc1[N+](=O)[O-])c1ccc([N+](=O)[O-])cc1[N+](=O)[O-]` reads “inactive”; that for `O=C(OC1CN2CCC1CC2)c1cccc([N+](=O)[O-])c1` (stereo not drawn), “inactive”; that for `CCOC(=O)c1ccc(NC(=O)C(C)(CCl)SC)cc1` (stereo not drawn), “inactive”.
On to `CCOP(=O)(Nc1cccc2cccnc12)OCC`, for which the Potency result was “inactive”.
